Test results reported in patent publication EP0553673A1 (priority 1992, dated 1993).

System: Krebszellen der Zellinie BIR-M1Rk
Details: BIR-M1Rk cells

Question: What does the source list for `COC(C)(CCOP(N)(=O)N(CCCl)CCCl)OC` (racemic)?
Answer: um den Faktor verringerte Überlebensrate der Krebszellen (pH 6,2 of the medium, model for a cancer cell population under hyperglycaemia, dose 10 µg/ml): 10 000; Toxizität (pH 7,4 of the medium, model for a normal cell population): nur eine geringe Toxizität
